Measurements published in ChEMBL document CHEMBL1201862, “PubChem BioAssay data set” (2004).
Activity calls are given as the source filed them.

The chains behind the UniProt entries cited, without tags or fusion partners.
UniProt P35372, whole entry: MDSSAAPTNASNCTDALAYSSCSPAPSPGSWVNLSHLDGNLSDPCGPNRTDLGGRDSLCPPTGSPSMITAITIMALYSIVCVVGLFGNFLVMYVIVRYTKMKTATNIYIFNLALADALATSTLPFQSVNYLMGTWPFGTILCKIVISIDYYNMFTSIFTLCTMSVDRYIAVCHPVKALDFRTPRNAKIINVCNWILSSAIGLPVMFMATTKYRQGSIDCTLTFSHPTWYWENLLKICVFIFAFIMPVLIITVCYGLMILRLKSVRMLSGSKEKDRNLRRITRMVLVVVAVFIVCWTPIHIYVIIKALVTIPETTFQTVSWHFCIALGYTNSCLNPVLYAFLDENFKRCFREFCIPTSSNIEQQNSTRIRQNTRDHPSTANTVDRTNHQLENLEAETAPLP
UniProt P35363, whole entry: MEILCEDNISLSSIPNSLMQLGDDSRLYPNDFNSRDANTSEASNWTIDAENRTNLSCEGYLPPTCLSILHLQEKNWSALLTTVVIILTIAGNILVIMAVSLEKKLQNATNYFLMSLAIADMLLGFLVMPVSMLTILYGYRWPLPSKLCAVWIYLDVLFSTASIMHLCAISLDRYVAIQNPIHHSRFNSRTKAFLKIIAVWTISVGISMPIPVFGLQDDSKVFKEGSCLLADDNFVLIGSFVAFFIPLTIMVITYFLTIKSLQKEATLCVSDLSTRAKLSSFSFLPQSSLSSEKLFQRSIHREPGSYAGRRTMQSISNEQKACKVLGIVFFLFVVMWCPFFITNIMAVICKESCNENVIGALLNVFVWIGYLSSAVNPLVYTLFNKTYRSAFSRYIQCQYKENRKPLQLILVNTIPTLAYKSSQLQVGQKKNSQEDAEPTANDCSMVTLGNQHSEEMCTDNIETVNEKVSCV
UniProt P11712, whole entry: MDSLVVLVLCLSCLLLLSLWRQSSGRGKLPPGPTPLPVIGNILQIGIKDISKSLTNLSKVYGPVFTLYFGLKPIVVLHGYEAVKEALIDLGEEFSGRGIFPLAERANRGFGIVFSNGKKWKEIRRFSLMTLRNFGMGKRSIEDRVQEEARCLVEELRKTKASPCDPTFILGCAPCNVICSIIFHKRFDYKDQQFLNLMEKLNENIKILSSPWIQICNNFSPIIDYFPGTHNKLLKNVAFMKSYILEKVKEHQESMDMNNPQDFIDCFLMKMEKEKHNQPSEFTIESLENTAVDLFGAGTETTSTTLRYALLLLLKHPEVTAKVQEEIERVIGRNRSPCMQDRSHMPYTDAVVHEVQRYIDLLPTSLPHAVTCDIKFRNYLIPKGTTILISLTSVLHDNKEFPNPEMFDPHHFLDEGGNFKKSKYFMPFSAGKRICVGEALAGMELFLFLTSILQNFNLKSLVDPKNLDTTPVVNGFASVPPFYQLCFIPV
UniProt P05177, whole entry: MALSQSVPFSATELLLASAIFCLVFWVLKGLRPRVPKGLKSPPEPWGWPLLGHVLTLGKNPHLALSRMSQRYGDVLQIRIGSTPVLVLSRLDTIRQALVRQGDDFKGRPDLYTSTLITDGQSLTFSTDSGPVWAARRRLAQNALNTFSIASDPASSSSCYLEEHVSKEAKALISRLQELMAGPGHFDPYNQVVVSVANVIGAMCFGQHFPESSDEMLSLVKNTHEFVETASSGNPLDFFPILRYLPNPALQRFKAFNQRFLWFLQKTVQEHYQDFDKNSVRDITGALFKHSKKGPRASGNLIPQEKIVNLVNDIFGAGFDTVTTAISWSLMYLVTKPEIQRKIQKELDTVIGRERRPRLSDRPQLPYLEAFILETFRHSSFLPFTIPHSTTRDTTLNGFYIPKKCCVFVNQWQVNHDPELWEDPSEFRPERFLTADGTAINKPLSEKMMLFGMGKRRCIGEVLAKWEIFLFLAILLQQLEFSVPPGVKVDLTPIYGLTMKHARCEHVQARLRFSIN

Assays:
[1] = biological target: T1, Replicative DNA helicase DnaB (Mycobacterium tuberculosis, UniProt P9WMR3); assay: DnaB intein splicing inhibitors, dose response, biochemical, cell-free fluorescence (AID 449749); format: functional
T1 sequence (P9WMR3 whole entry): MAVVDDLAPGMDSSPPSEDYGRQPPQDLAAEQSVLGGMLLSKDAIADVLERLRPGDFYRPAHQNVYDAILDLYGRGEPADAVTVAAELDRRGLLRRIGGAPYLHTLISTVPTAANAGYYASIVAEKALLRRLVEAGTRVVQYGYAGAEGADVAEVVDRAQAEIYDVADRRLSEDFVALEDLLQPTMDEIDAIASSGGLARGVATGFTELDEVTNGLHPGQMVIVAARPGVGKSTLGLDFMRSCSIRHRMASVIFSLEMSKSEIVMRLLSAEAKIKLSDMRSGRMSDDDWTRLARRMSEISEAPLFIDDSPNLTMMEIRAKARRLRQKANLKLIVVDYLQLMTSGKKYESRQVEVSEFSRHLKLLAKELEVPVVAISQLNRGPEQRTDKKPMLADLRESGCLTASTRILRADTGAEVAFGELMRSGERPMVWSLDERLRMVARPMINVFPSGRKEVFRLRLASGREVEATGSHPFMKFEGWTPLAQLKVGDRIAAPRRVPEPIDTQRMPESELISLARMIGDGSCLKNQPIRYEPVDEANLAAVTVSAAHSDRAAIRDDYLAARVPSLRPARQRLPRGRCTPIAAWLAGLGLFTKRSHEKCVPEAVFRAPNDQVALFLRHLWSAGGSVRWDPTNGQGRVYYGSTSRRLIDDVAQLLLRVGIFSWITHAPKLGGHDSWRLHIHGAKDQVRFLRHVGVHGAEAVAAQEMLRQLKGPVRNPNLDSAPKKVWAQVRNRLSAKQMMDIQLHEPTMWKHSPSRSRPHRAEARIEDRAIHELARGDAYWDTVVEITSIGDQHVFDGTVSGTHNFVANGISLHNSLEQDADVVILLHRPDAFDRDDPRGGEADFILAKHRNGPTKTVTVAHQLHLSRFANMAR

Mu-type opioid receptor = Mu-type opioid receptor (Homo sapiens, UniProt P35372); format: functional, cell-based;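 further: U2OS cells with beta-arrestin recruitment to OPRM1 by beta-gal complementation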
[2] = biological target: 5-hydroxytryptamine receptor 2A (Mus musculus, UniProt P35363); format: functional, cell-based;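 further: CHO-K1 cells with tagged receptor and beta-arrestin; agonist potency measured as compound-induced activation of the receptor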
Cytochrome P450 2C9 = Cytochrome P450 2C9 (Homo sapiens, UniProt P11712)
Cytochrome P450 1A2 = Cytochrome P450 1A2 (Homo sapiens, UniProt P05177);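 further: PubChem cytochrome P450 panel assay, CYP1A2 panel member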
[3] = biological target: T2, Tyrosine-protein phosphatase non-receptor type 7 (Homo sapiens, UniProt P35236); format: functional
T2 sequence (P35236 whole entry): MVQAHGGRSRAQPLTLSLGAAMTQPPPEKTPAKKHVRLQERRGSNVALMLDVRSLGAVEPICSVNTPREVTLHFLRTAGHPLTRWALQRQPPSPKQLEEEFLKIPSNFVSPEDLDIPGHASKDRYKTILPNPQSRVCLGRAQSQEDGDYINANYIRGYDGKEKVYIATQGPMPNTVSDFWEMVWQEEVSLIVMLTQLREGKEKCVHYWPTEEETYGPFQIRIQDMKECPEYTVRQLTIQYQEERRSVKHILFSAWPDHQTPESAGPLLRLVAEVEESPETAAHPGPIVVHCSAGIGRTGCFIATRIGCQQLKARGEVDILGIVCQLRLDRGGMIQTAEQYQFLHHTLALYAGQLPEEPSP

## Clc1ccc(COC(Cn2ccnc2)c2ccc(Cl)cc2Cl)cc1 (stereo unspecified) [ECONAZOLE NITRATE]
[1]
  AC50: active: 4.8 µM

## Nc1nc2ccc(OC(F)(F)F)cc2s1 [RILUZOLE]
Mu-type opioid receptor
  EC50: inactive: 92.6 µM
[2]
  EC50: active: 2.92 µM

## C[C@H]1C[C@@H]2[C@@H]([C@@H](O)C[C@@]3(C)[C@H]2CC[C@]3(O)C(=O)CO)[C@@]2(C)C=CC(=O)C=C12
Cytochrome P450 2C9
  AC50: inactive
Cytochrome P450 1A2
  AC50: inactive

## O=S(=O)(O)c1ccc2cc(/N=N/c3cc(S(=O)(=O)O)c4cccnc4c3O)ccc2c1
[3]
  IC50: active: 0.483 µM
